Measurements: PubChem BioAssay AID2777 (Johns Hopkins Ion Channel Center, 2010)
This is a selection; strong and weak results do not stand in their true shares. The source made the active and inactive calls.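 How the source made its calls: active means rise or fall in signal beyond 3 SD of buffer-only wells in both replicate plates, either sign; inactive means the rest.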

Test system: transient receptor potential cation channel C4 (TRPC4), mouse
Assay: membrane potential change in TRPC4 cells – cell-based, HEK293 TRPC4/mu-opioid, membrane potential dye, selectivity assay for TRPC6 inhibitor project, confirmation (AID 2777);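 further: integrated kinetic ratio of fluorescence range over baseline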
Conditions: membrane potential fluorescence, at 10 µM

SMILES | outcome | activity change, negative = inhibition
CCC(CO)(C(=O)OC1CN2CCC1CC2)c1ccccc1 (configuration not stated) | inactive | –
O=C(OC1CN2CCC1CC2)C1c2ccccc2Oc2ccccc21 (configuration not stated) | – | active: 7.08%
